This is an account of results in patent publication US11793885B2, “Substituted benzo[5,6][1,4]diazepino[1,2-a]indoles for the treatment of proliferative disorders” (priority 2017, dated 2023).

Where two headings read alike, the source gives them in different places.

Assay [1] relates to KB (cervical carcinoma). Briefly: in vitro cytotoxicity assay, KB cells. The assay is classed as cell-based, human. The note with it: M9346A conjugate.
The subject of assay [2] is NCI-H2110 (Non Small Cell Lung Carcinoma). Briefly: in vitro cytotoxicity assay, NCI-H2110 cells. The assay is classed as cell-based. The conditions noted are these: M9346A conjugate.
The test system of assay [3] is Ishikawa (endometrial adenocarcinoma). Briefly: in vitro cytotoxicity assay, Ishikawa cells. The assay is classed as cell-based. The conditions noted are these: M9346A conjugate.
Assay [4] deals with FRα-negative cells 300-19 in mixed culture with 300-19 transfected with human FRα. The experiment in a line: bystander cytotoxicity assay (300.19 −/+FRα system). The class given is cell-based. The note with it: 300.19 cell system −/+FRα, 4 days. The procedure:
A mixed culture of FRα-positive cells 300-19 transfected with human FRα and FRα-negative cells 300-19 was exposed to conjugates at concentrations that are not toxic for the negative cells but highly toxic for the receptor-positive cells (killing 100% of the cells). Cells were incubated for 4 days, and the inhibition of cell proliferation was determined by Cell Titer Glo (Promega) according to the manufacturer's protocol.

The subject of assay [5] is HEC-1B. Briefly: in vitro cytotoxicity assay, HEC-1B cells. The class given is cell-based. The note with it: M9346A conjugate.
Setting [6] is: with excess unconjugated antibody, read-out: IC50 KB + block.
The mark [7] stands for this setting: without excess unconjugated antibody, read-out: IC50 KB − block.
Where [8] appears, read: with excess unconjugated antibody, read-out: IC50 H2110 + block.
Setting [9] is: without excess unconjugated antibody, read-out: IC50 H2110 − block.

B1: M-143 or 144: "crude, sulfonated compound 144 thus prepared was added to a solution of huMov19 antibody"; "2.9 mol 144/mol antibody" (conjugate, chains of the INN, looked up)
heavy: QVQLVQSGAEVVKPGASVKISCKASGYTFTGYFMNWVKQSPGQSLEWIGRIHPYDGDTFYNQKFQGKATLTVDKSSNTAHMELLSLTSEDFAVYYCTRYDGSRAMDYWGQGTTVTVSSASTKGPSVFPLAPSSKSTSGGTAALGCLVKDYFPEPVTVSWNSGALTSGVHTFPAVLQSSGLYSLSSVVTVPSSSLGTQTYICNVNHKPSNTKVDKKV[left out - human IgG1 Fc]
light: DIVLTQSPLSLAVSLGQPAIISCKASQSVSFAGTSLMHWYHQKPGQQPRLLIYRASNLEAGVPDRFSGSGSKTDFTLTISPVEAEDAATYYCQQSREYPYTFGGGTKLEIKRTVAAPSVFIFPPSDEQLKSGTASVVCLLNNFYPREAKVQWKVDNALQSGNSQESVTEQDSKDSTYSLSSTLTLSKADYEKHKVYACEVTHQGLSSPVTKSFNRGEC
modifications: payload compound 143/144
Take B1: the IC50 in assay [1] (setting [6]) worked out at 3 nM; in assay [1] (setting [7]), 0.01 nM; in assay [2] (setting [8]), 40 nM; in assay [2] (setting [9]), 2 nM.

B2: M-167: "conjugate huMov19-167" (conjugate, chains of the INN, looked up)
heavy: B1 heavy
light: B1 light
modifications: payload compound 167
Take B2: the IC50 is 20 nM in assay [3] (with excess unconjugated antibody, read-out: IC50 Ishikawa + block); 9 nM in assay [3] (without excess unconjugated antibody, read-out: IC50 Ishikawa − block); 3 nM in assay [5] (with excess unconjugated antibody, read-out: IC50 HEC-1B + block); 3 nM in assay [5] (without excess unconjugated antibody, read-out: IC50 HEC-1B − block). The “% FRα-negative cells killed at 4e−10M conjugate” value in assay [4] worked out at 13%.

B3: M-sSPDB-30: "crude sulfo-SPDB-30 was then added to a solution containing huMov19 antibody"; "2.5 mol 30/mol antibody" (conjugate, chains of the INN, looked up)
heavy: B1 heavy
light: B1 light
modifications: sulfo-SPDB linker, payload 30
As to B3, the IC50 was above 4 nM in assay [1] (setting [6]), above 4 nM in assay [1] (setting [7]), above 40 nM in assay [2] (setting [8]) and above 40 nM in assay [2] (setting [9]).
